Reference: PubChem BioAssay (NCI)
Only a part is listed here, and it is no random draw.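 Step 1: grow cells in 96-well plates. Step 2: add test compound at a single concentration. Step 3: incubate 48 h. Step 4: record percent growth.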 Calls of active or inactive are those of the source. How the source made its calls: active means growth percent below 10; inactive means the rest.

Columns and labels:
Assay in all cases: NCI-60 one-dose screen, 48 h (100 = growth as untreated, 0 = no growth, -100 = all killed)
Details in all cases: 10 µM unless noted
SK-MEL-2 melanoma = system: SK-MEL-2 melanoma
EKVX NSCLC = system: EKVX NSCLC
SN12C renal = system: SN12C renal
UO-31 renal = system: UO-31 renal
TK-10 renal = system: TK-10 renal
ACHN renal = system: ACHN renal
HL-60(TB) leukemia = system: HL-60(TB) leukemia
CCRF-CEM leukemia = system: CCRF-CEM leukemia
MOLT-4 leukemia = system: MOLT-4 leukemia
SR leukemia = system: SR leukemia
RPMI-8226 leukemia = system: RPMI-8226 leukemia
OVCAR-8 ovarian = system: OVCAR-8 ovarian
OVCAR-5 ovarian = system: OVCAR-5 ovarian
OVCAR-4 ovarian = system: OVCAR-4 ovarian
SK-OV-3 ovarian = system: SK-OV-3 ovarian
IGROV1 ovarian = system: IGROV1 ovarian
OVCAR-3 ovarian = system: OVCAR-3 ovarian
CAKI-1 renal = system: CAKI-1 renal
HS 578T breast = system: HS 578T breast
A498 renal = system: A498 renal

Measured: growth

O=C(O)CCc1ccc(N(CCCl)CCCl)cc1
inactive: SK-MEL-2 melanoma 110% | EKVX NSCLC 94.3% | SN12C renal 92.2% | UO-31 renal 89.9% | TK-10 renal 101% | ACHN renal 97.7% | HL-60(TB) leukemia 89.8% | CCRF-CEM leukemia 74.9% | MOLT-4 leukemia 80.7% | SR leukemia 45% | RPMI-8226 leukemia 93.8% | OVCAR-8 ovarian 88.8% | OVCAR-5 ovarian 103% | OVCAR-4 ovarian 100% | SK-OV-3 ovarian 106% | IGROV1 ovarian 85.7% | OVCAR-3 ovarian 98.8%

[N-]=[N+]=NC(=O)c1cccc([N+](=O)[O-])c1
inactive: SK-MEL-2 melanoma 89.2% | EKVX NSCLC 61.7% | SN12C renal 82.3% | UO-31 renal 59% | TK-10 renal 83% | ACHN renal 39.5% | CAKI-1 renal 70.9% | HL-60(TB) leukemia 54.9% | CCRF-CEM leukemia 59.9% | MOLT-4 leukemia 75.3% | SR leukemia 84% | RPMI-8226 leukemia 30.8% | OVCAR-8 ovarian 63.6% | OVCAR-5 ovarian 85.4% | OVCAR-4 ovarian 66.1% | SK-OV-3 ovarian 106% | IGROV1 ovarian 87.9% | OVCAR-3 ovarian 47.9% | HS 578T breast 105%

CCOP(=O)(Nc1ccccc1Cl)OCC
inactive: SK-MEL-2 melanoma 121% | EKVX NSCLC 91.6% | SN12C renal 112% | UO-31 renal 60.6% | TK-10 renal 117% | A498 renal 116% | HL-60(TB) leukemia 83.9% | CCRF-CEM leukemia 109% | MOLT-4 leukemia 93.6% | SR leukemia 100% | RPMI-8226 leukemia 100% | OVCAR-8 ovarian 98.4% | OVCAR-5 ovarian 114% | OVCAR-4 ovarian 89.9% | SK-OV-3 ovarian 94.8% | IGROV1 ovarian 86% | OVCAR-3 ovarian 91.9% | HS 578T breast 90.4%

O=C1OP(=O)(Cl)Oc2ccccc21 (stereo not drawn)
inactive: SK-MEL-2 melanoma 105% | EKVX NSCLC 107% | SN12C renal 97.1% | UO-31 renal 95% | TK-10 renal 95.5% | ACHN renal 112% | A498 renal 86.9% | HL-60(TB) leukemia 84.5% | CCRF-CEM leukemia 99.4% | MOLT-4 leukemia 86.9% | SR leukemia 101% | RPMI-8226 leukemia 96.5% | OVCAR-8 ovarian 101% | OVCAR-5 ovarian 111% | OVCAR-4 ovarian 110% | SK-OV-3 ovarian 98.7% | IGROV1 ovarian 107% | OVCAR-3 ovarian 112% | HS 578T breast 83.7%

O=[As](O)(c1cccc(O)c1)c1cccc(O)c1
inactive: SK-MEL-2 melanoma 112% | EKVX NSCLC 109% | SN12C renal 95.4% | UO-31 renal 99.2% | TK-10 renal 110% | ACHN renal 100% | A498 renal 97.1% | HL-60(TB) leukemia 110% | CCRF-CEM leukemia 89% | MOLT-4 leukemia 113% | SR leukemia 112% | RPMI-8226 leukemia 80.5% | OVCAR-8 ovarian 102% | OVCAR-5 ovarian 89.5% | OVCAR-4 ovarian 105% | SK-OV-3 ovarian 103% | IGROV1 ovarian 128% | OVCAR-3 ovarian 121% | HS 578T breast 106%

CN(CCCl)CCC(=O)c1ccccc1
inactive: SK-MEL-2 melanoma 97.3% | EKVX NSCLC 101% | SN12C renal 102% | UO-31 renal 91.5% | TK-10 renal 95.4% | ACHN renal 98.2% | A498 renal 94.5% | HL-60(TB) leukemia 72.1% | CCRF-CEM leukemia 80.4% | MOLT-4 leukemia 83.4% | SR leukemia 101% | RPMI-8226 leukemia 50.3% | OVCAR-8 ovarian 101% | OVCAR-5 ovarian 97.8% | OVCAR-4 ovarian 99.6% | SK-OV-3 ovarian 115% | IGROV1 ovarian 107% | OVCAR-3 ovarian 102% | HS 578T breast 95.2%

C=CCOP(O)OCC=C
inactive: SK-MEL-2 melanoma 109% | EKVX NSCLC 101% | SN12C renal 103% | TK-10 renal 91.3% | ACHN renal 105% | CAKI-1 renal 91.5% | A498 renal 102% | HL-60(TB) leukemia 109% | CCRF-CEM leukemia 84.7% | MOLT-4 leukemia 113% | RPMI-8226 leukemia 100% | OVCAR-8 ovarian 105% | OVCAR-5 ovarian 107% | OVCAR-4 ovarian 102% | SK-OV-3 ovarian 101% | IGROV1 ovarian 112% | OVCAR-3 ovarian 117% | HS 578T breast 101%

ClP1(Cl)=NP(Cl)(Cl)=NP(c2ccccc2)(c2ccccc2)=N1
inactive: SK-MEL-2 melanoma 100% | EKVX NSCLC 102% | SN12C renal 105% | UO-31 renal 85.3% | TK-10 renal 83.8% | A498 renal 95.9% | HL-60(TB) leukemia 84.6% | MOLT-4 leukemia 76.3% | SR leukemia 108% | OVCAR-8 ovarian 97.6% | OVCAR-5 ovarian 109% | OVCAR-4 ovarian 102% | SK-OV-3 ovarian 89.4% | IGROV1 ovarian 112% | OVCAR-3 ovarian 117% | HS 578T breast 103%

CCCNC(=O)c1ccc(N(CCCl)CCCl)cc1
inactive: SK-MEL-2 melanoma 110% | EKVX NSCLC 101% | SN12C renal 101% | UO-31 renal 83.6% | TK-10 renal 110% | ACHN renal 101% | A498 renal 107% | HL-60(TB) leukemia 118% | CCRF-CEM leukemia 71.7% | MOLT-4 leukemia 107% | SR leukemia 108% | RPMI-8226 leukemia 94.7% | OVCAR-8 ovarian 92.4% | OVCAR-5 ovarian 104% | OVCAR-4 ovarian 100% | SK-OV-3 ovarian 91.1% | IGROV1 ovarian 105% | OVCAR-3 ovarian 108%

Nc1cccc([As](=O)(O)c2ccccc2)c1
inactive: SK-MEL-2 melanoma 99.5% | EKVX NSCLC 118% | SN12C renal 100% | UO-31 renal 93.5% | TK-10 renal 112% | ACHN renal 105% | A498 renal 96.9% | HL-60(TB) leukemia 106% | CCRF-CEM leukemia 103% | MOLT-4 leukemia 103% | SR leukemia 111% | RPMI-8226 leukemia 93.3% | OVCAR-8 ovarian 105% | OVCAR-5 ovarian 97.3% | OVCAR-4 ovarian 100% | SK-OV-3 ovarian 103% | OVCAR-3 ovarian 109% | HS 578T breast 114%

CCOCCN(CCCl)Cc1ccccc1
inactive: SK-MEL-2 melanoma 94.6% | EKVX NSCLC 107% | SN12C renal 101% | UO-31 renal 91.4% | TK-10 renal 92.7% | ACHN renal 103% | A498 renal 109% | HL-60(TB) leukemia 92.1% | CCRF-CEM leukemia 98.1% | MOLT-4 leukemia 90.3% | SR leukemia 92% | RPMI-8226 leukemia 94.2% | OVCAR-8 ovarian 97.5% | OVCAR-5 ovarian 102% | OVCAR-4 ovarian 126% | SK-OV-3 ovarian 102% | IGROV1 ovarian 108% | OVCAR-3 ovarian 107% | HS 578T breast 108%

CC(C)N(CCCl)/N=N/c1nc2nc[nH]c(=O)c2[nH]1
inactive: SK-MEL-2 melanoma 88.5% | EKVX NSCLC 105% | SN12C renal 107% | UO-31 renal 86.5% | TK-10 renal 92.1% | ACHN renal 108% | A498 renal 103% | HL-60(TB) leukemia 88.6% | CCRF-CEM leukemia 102% | MOLT-4 leukemia 115% | SR leukemia 100% | RPMI-8226 leukemia 111% | OVCAR-8 ovarian 105% | OVCAR-5 ovarian 102% | OVCAR-4 ovarian 106% | SK-OV-3 ovarian 99.7% | IGROV1 ovarian 103% | OVCAR-3 ovarian 108% | HS 578T breast 123%

CCCN(CCCl)C1c2ccccc2-c2ccccc21
inactive: SK-MEL-2 melanoma 99.1% | EKVX NSCLC 102% | SN12C renal 100% | UO-31 renal 87.9% | TK-10 renal 98.6% | ACHN renal 98.3% | A498 renal 109% | HL-60(TB) leukemia 94% | CCRF-CEM leukemia 101% | MOLT-4 leukemia 81.1% | SR leukemia 75.3% | RPMI-8226 leukemia 98.7% | OVCAR-8 ovarian 99.7% | OVCAR-5 ovarian 94.5% | OVCAR-4 ovarian 97.5% | SK-OV-3 ovarian 92.1% | IGROV1 ovarian 102% | OVCAR-3 ovarian 108% | HS 578T breast 106%

Nc1cccc2c([As](=O)(O)O)cccc12
inactive: SK-MEL-2 melanoma 129% | EKVX NSCLC 109% | SN12C renal 100% | UO-31 renal 96.1% | TK-10 renal 122% | ACHN renal 110% | CAKI-1 renal 97% | HL-60(TB) leukemia 116% | CCRF-CEM leukemia 54.7% | MOLT-4 leukemia 74% | RPMI-8226 leukemia 122% | OVCAR-8 ovarian 104% | OVCAR-5 ovarian 98.3% | OVCAR-4 ovarian 103% | SK-OV-3 ovarian 111% | IGROV1 ovarian 109% | OVCAR-3 ovarian 112%

O=C(CCC(=O)Oc1c(Cl)cc([N+](=O)[O-])cc1[N+](=O)[O-])Oc1c(Cl)cc([N+](=O)[O-])cc1[N+](=O)[O-]
inactive: SK-MEL-2 melanoma 121% | EKVX NSCLC 119% | SN12C renal 107% | UO-31 renal 98% | TK-10 renal 98.4% | ACHN renal 108% | A498 renal 99.4% | HL-60(TB) leukemia 102% | CCRF-CEM leukemia 104% | MOLT-4 leukemia 90.4% | SR leukemia 101% | RPMI-8226 leukemia 101% | OVCAR-8 ovarian 103% | OVCAR-5 ovarian 109% | OVCAR-4 ovarian 107% | SK-OV-3 ovarian 100% | IGROV1 ovarian 105% | OVCAR-3 ovarian 120% | HS 578T breast 111%

O=C(O)COc1ccc([As](=O)(O)O)cc1[N+](=O)[O-]
inactive: SK-MEL-2 melanoma 109% | EKVX NSCLC 107% | SN12C renal 99.8% | UO-31 renal 104% | TK-10 renal 111% | ACHN renal 102% | CAKI-1 renal 106% | HL-60(TB) leukemia 119% | CCRF-CEM leukemia 82% | MOLT-4 leukemia 107% | RPMI-8226 leukemia 110% | OVCAR-8 ovarian 115% | OVCAR-5 ovarian 86.5% | OVCAR-4 ovarian 83.9% | SK-OV-3 ovarian 112% | IGROV1 ovarian 128% | OVCAR-3 ovarian 117%

O=C1NC(c2ccccc2)(c2ccccc2)C(=O)N1P(=O)(Oc1ccccc1)Oc1ccccc1
inactive: SK-MEL-2 melanoma 105% | SN12C renal 95.9% | UO-31 renal 81.5% | TK-10 renal 107% | ACHN renal 108% | CAKI-1 renal 98.2% | A498 renal 89.3% | HL-60(TB) leukemia 89.5% | CCRF-CEM leukemia 91.7% | MOLT-4 leukemia 93% | SR leukemia 90.4% | RPMI-8226 leukemia 91.2% | OVCAR-8 ovarian 101% | OVCAR-5 ovarian 100% | OVCAR-4 ovarian 100% | SK-OV-3 ovarian 104% | IGROV1 ovarian 104% | OVCAR-3 ovarian 112%

ClP1Nc2cncnc2N1 (stereo not drawn)
inactive: SK-MEL-2 melanoma 122% | SN12C renal 101% | UO-31 renal 83.4% | TK-10 renal 98.7% | ACHN renal 110% | CAKI-1 renal 92.3% | A498 renal 135% | HL-60(TB) leukemia 98.7% | CCRF-CEM leukemia 104% | MOLT-4 leukemia 110% | SR leukemia 90.2% | RPMI-8226 leukemia 112% | OVCAR-8 ovarian 114% | OVCAR-5 ovarian 112% | OVCAR-4 ovarian 108% | SK-OV-3 ovarian 112% | IGROV1 ovarian 104% | OVCAR-3 ovarian 113% | HS 578T breast 114%
